Among the data in patent US20100298377A1, “NOVEL SUBSTITUTED INDAZOLES, THE PREPARATION THEREOF AND USE OF SAME IN THERAPEUTICS” (SANOFI-AVENTIS, priority 2007, published 2010) are IC50 values, retold here.

Usually IC50 stands for the concentration that gives 50% inhibition. The low end stands for greater potency in that assay, the high end for weaker potency in that assay.

The test has as its system MIA PaCa-2 cells (human pancreatic carcinoma cells). The test is described as follows: Proliferation of MIA PaCa-2 cells, intracellular ATP, CellTiter-Glo test. To be noted: 96 hours. The class given is cell-based. From the text:
b. Study of the Proliferation of Human Tumoral MIA PaCa-2, C-433, LnCaP and MCF7 Cells via Assay of the Intracellular ATP Using the Celltiter-Glo™ Test
The kit CellTiter-Glo™ for measuring cell viability via luminescence ([…]) is a homogeneous method for determining the number of viable cells in culture, based on quantification of the ATP present in the cells, and which indicates the presence of metabolically active cells.
The cell lines used in this test were the following: MIA PaCa-2 cells (human pancreatic carcinoma cells, ATCC, CRL-1420), C-433 cells (human Ewing sarcoma cells, DSMZ, ACC 268), LNCaP clone FGC cells (human prostate carcinoma cells, ATCC, CRL-1740), MCF7 cells (human breast carcinoma cells, ECACC, #86012803). […]
Evaluation of the Cell Viability via Luminescence Measurement: Celltiter-Glo™ Test
On day 1, the cells were inoculated at 1000 (C-433), 2500 (MCF7) and 10000 (LNCaP and MIA PaCa-2) cells per well in black-bottomed 96-well microplates (NUNC fluoronunc, Fisherbioblock 2311K) in 135 μl of whole culture medium and incubated at 37° C., 5% CO2, for 3 to 6 hours. […] The intracellular ATP was quantified by measuring the luminescence in rlu units (relative luminescence units), 96 hours after initiation of the treatment, using a luminescence counter (Wallac). […]
i) the mean±s.e.m. of each series of well replicates was calculated; […]
On the technique in general: In ATP-based viability assays light output follows the ATP content of the culture.

The molecule `CN1CCCCC1C(NC(=O)Nc1ccc2[nH]nc(C#Cc3cccc(F)c3)c2c1)c1ccccc1` [Ex 22, 1-{3-[(3-Fluorophenyl)ethynyl]-1H-indazol-5-yl}-3-[(1-methylpiperid-2-yl)(phenyl)methyl]urea((S,2S),(R,2R))] displayed an IC50 of 5.9 µM.
